43 compounds from PubChem BioAssay AID720647 (Broad Institute, 2013) can be followed below.

The entries are a selection whose mix differs from that of the whole data set. The source made the active and inactive calls.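 The calls were made as follows: active = drop in luminescence signal, shown as inhibition above about 50% in the replicate tests (limit read from the data, passing the limit was not always enough); inconclusive = probably only some replicates passing the limit; inactive = the rest.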

The inhibition is the change of the read-out against control, counted positive when it falls.

The assay deals with Drosophila bursicon receptor LGR2 (rickets). The assay is described as follows: LGR2 cAMP reporter signal reduction – cell-based, HEK293, CRE-luciferase reporter, bursicon stimulation, primary screen (AID 720647).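 Also: agonist challenge used bursicon conditioned medium at about half maximal strength.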 The note with it: bursicon-stimulated, 4 h, at 9.99 µM, active compounds read high. On the technique in general: A reporter such as luciferase makes a cellular process visible.
Turning to `O=c1c2cc([N+](=O)[O-])ccc2[nH]c2c([N+](=O)[O-])cc([N+](=O)[O-])cc12`, the inhibition is active: 97.5%.
In the case of `CN(C)C(=O)Oc1noc2ccccc12` it was inactive: 5.27%.
The result for `CC(NC(=O)COC(=O)C(O)(c1ccccc1)c1ccccc1)c1ccccc1` (stereo not drawn) reads inactive: -2.8%; that for `Cc1ccccc1OP(=O)(Nc1ccccn1)Oc1ccccc1C`, inactive: 19.9%.
In the case of `O=P(Nc1nc2ccc(Cl)cc2s1)(c1ccccc1)c1ccccc1` it was inactive: -2.56%; in that of `CN(C)P(=O)(N(C)C)n1c(Nc2ccccc2)nnc1-c1ccccc1`, inactive: -18.3%; in that of `CCCC1OP(N)(=O)OCC1CC` (stereo not drawn), inactive: 0.494%.
Take `CC(=O)Nc1ccc([As](=O)(O)O)cc1`: the inhibition was inactive: 7.32%.
The result for `O=C(O)c1ccccc1[As](=O)(O)O` reads inactive: -14.3%.
In the case of `CCn1c(=O)n(C2CCN(CC3CCCCCCC3)C[C@H]2CO)c2ccccc21` (stereo partly drawn) it was inactive: -23%; in that of `CN(C(=O)Cc1ccc(Cl)c(Cl)c1)[C@H]1CCCC[C@@H]1N1CCCC1`, inactive: 6.98%; in that of `Cc1ccc(NP(=O)(Oc2ccccc2F)Oc2ccccc2F)nc1`, inactive: 8.92%.
As to `Cc1cc(SC(NC(=O)c2ccc(F)cc2)C(Cl)(Cl)Cl)ncn1` (stereo not drawn), the inhibition is inactive: 1.22%.
As for `Nc1cccc2ccc([As](=O)(O)O)cc12`, the inhibition was inactive: 5.91%.
The result for `CCN(N=Nc1nonc1N)c1nonc1N` reads inactive: 0.514%; that for `CN(C(=O)Cc1ccccc1)C1CC[C@@]2(CCCO2)C[C@@H]1N1CCCC1` (stereo partly drawn), inactive: 6.48%.
The result for `CN(C(=O)Cc1ccc(Cl)c(Cl)c1)[C@H]1CCCC[C@H]1N1CCCC1` reads inactive: 22.4%; that for `NC(=O)c1cc([N+](=O)[O-])cc([N+](=O)[O-])c1N`, inactive: 2.12%.
For `Clc1ccc(Cl)c(NC2=NCC(CBr)S2)c1` (stereo not drawn), the inhibition is inactive: -8.48%.
The result for `Cc1ccc(OP(=O)(Nc2nccs2)Oc2ccc(C)cc2)cc1` reads inactive: 3.14%; that for `COc1ccccc1OP(=O)(Nc1ccc(C)cn1)Oc1ccccc1OC`, inactive: -14.6%.
The result for `O=C(NC(Sc1ccncn1)C(Cl)(Cl)Cl)c1ccccc1` (stereo not drawn) reads inactive: 7.1%; that for `Oc1ccccc1CNc1ccccn1`, inactive: 5.41%; that for `Nc1cc(N)c2nonc2c1[N+](=O)[O-]`, inactive: 12.4%.
The result for `CC(C)CC(=O)NC(Sc1ccc(Cl)cc1)C(Cl)(Cl)Cl` (stereo not drawn) reads inactive: 16.6%; that for `COc1ccc(C2=NCC(CBr)S2)cc1` (stereo not drawn), inactive: 0.821%.
In the case of `O=[N+]([O-])c1cc([N+](=O)[O-])c(CCNc2ccccc2)c([N+](=O)[O-])c1`, the inhibition was inactive: -13.5%.
In the case of `Cc1ccc(NP(=O)(Oc2ccccc2)Oc2ccccc2)nc1` it was inactive: -4%.
As for `CCN(/C(=N/P(=O)(N1CCOCC1)N1CCOCC1)N1CCOCC1)c1ccc(OC)cc1`, the inhibition was inactive: -2.34%.
In the case of `C[N+]1=C2C=CC=CC=C2SC12C([N+](=O)[O-])=CC([N+](=O)[O-])=C[C-]2[N+](=O)[O-]` (stereo not drawn) it was inactive: -1.07%; in that of `Nc1ccc([As](=O)(O)c2ccc(N)cc2)cc1`, inactive: 10.6%.
The result for `CC1CCN(C(=O)Oc2c(Cl)cc(Cl)c3cccnc23)CC1` reads inactive: -0.758%; that for `c1cc(-c2nn[nH]n2)ccc1-c1nn[nH]n1`, inactive: -3.31%.
The result for `CN(C)C(=O)OCCc1n(C)cc[n+]1C` reads inactive: -4.69%; that for `CC(C)c1nc(Nc2ccccc2)n(P(=O)(N(C)C)N(C)C)n1`, inactive: 12.8%; that for `CC(C)=N/N=C(\N)N[N+](=O)[O-]`, inactive: 1.77%.
As to `O=P1(N(CCCl)CCCl)OCCCS1` (stereo not drawn), the inhibition was inactive: -3.59%.
In the case of `O=C(Nc1cc([As](=O)(O)O)ccc1O)c1ccccc1` it was inactive: 2.07%.
In the case of `O=[N+]([O-])c1ncn(CCn2ncnc2[N+](=O)[O-])n1` it was inactive: 5.96%; in that of `CC(C)(C)C(=O)NC(Sc1ccncn1)C(Cl)(Cl)Cl` (stereo not drawn), inactive: -6.23%; in that of `O=C(O)CNc1ccc([As](=O)(O)O)cc1`, inactive: 18%.
In the case of `COC(=O)C1(C)COP(=O)(Nc2ccccc2)OC1` (stereo not drawn) it was inactive: 10.5%; in that of `O=[N+]([O-])c1cccc(NC2=NCC(CBr)S2)c1` (stereo not drawn), inactive: -3.78%.
